Reference: PubChem BioAssay AID463212 (Sanford-Burnham Center for Chemical Genomics, 2010)
The list shows a part of the results, in another mix than the full data. Active and inactive are the calls of the source.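 How the source made its calls: active means growth inhibition of the mutant yeast at or above 50%; inactive means the rest.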

assay: growth inhibition of tim23-1 ts yeast – luminescence, uHTS, primary screen (AID 463212);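 further: temperature-sensitive mutant grown at 25 °C; plate controls were DMSO-treated mutant yeast for no effect and medium wells lacking yeast for full effect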; settings: S. cerevisiae tim23-1 growth, BacTiter-Glo luminescence, 24 h; at 20 µM; stronger effect = higher value

SMILES | inhibition
CCCOc1ccc(C)cc1CN(CCCl)CCCl | inactive: -1.3%
CN1CCC(Nc2ccc(Cl)cc2)CC1 | inactive: 11.5%
CCC(CO)(C(=O)OC1CN2CCC1CC2)c1ccccc1 (configuration not stated) | inactive: 15.1%
COc1cc(OC)cc(C(=O)NCC2(N3CCOCC3)CCCCC2)c1 | inactive: 3.56%
COc1cccc(C(=O)N(c2cc(C)cc(C)c2)C2CCN(C(=O)OC(C)(C)C)CC2)c1 | inactive: 30%
CCCOc1ccc(C(=O)NCC2(N(C)C)CCCCC2)cc1 | inactive: -1.83%
CC(C)(C)OC(=O)N1CCC(Nc2ccccc2)CC1 | inactive: -0.363%
O=C(O)C1(Nc2ccccc2)CCN(Cc2ccccc2)CC1 | inactive: 1.13%
CCOc1ncccc1C(=O)NCC1(N2CCOCC2)CCCCC1 | inactive: 19.4%
CN1CCC(Nc2ccc(F)c(Cl)c2)CC1 | inactive: -6.72%
O=C(NCC1(N2CCCCC2)CCCCC1)c1ccco1 | inactive: -10.6%
CN(C)c1ccc(C(=O)NCC2(N3CCCCC3)CCCCC2)cc1 | inactive: -3.11%
CCN1CCC(Nc2cccc(F)c2)CC1 | inactive: 4.29%
Cc1ccc(C(=O)NCC2(N3CCCCC3)CCCCC2)o1 | inactive: 20.2%
Fc1ccccc1NC1CCN(Cc2ccccc2)CC1 | inactive: -14.2%
COc1cc(OC)cc(C(=O)NCC2(N3CCCCC3)CCCCC2)c1 | inactive: 9.26%
c1ccc(CN2CCC(Nc3ccccc3)CC2)cc1 | inactive: 5.96%
CCCN1CCC(Nc2cc(OC)cc(OC)c2)CC1 | inactive: 4.1%
CN(C)C1(CNC(=O)c2cccc(C#N)c2)CCCCC1 | inactive: 3%
CC(C)(C)OC(=O)N1CCC(N(C(=O)c2ccccc2)c2ccc(Cl)cc2)CC1 | inactive: 33%
N#Cc1ccc(C(=O)NCC2(N3CCCCC3)CCCCC2)cc1 | inactive: 5.28%
O=C(OC1CN2CCC1CC2)C1c2ccccc2C=Cc2ccccc21 (configuration not stated) | inactive: -2.04%
CCc1cc(C(=O)NCC2(N3CCCCC3)CCCCC2)sc1C | inactive: 4%

SMILES | inhibition
N/C(=N\O)c1c(N)no[n+]1[O-] | inactive: -9.41%
CCOC(=O)N1CCC(Nc2ccc(C)cc2)CC1 | inactive: 10.6%
COc1ccc(C(=O)NCC2(N3CCOCC3)CCCCC2)cc1OC | inactive: -5.87%
O=C(NCC1(N2CCOCC2)CCCCC1)c1cc(Br)ccc1Cl | inactive: -1.31%
COc1cc(C(=O)NCC2(N3CCOCC3)CCCCC2)cc(OC)c1C | inactive: 15.9%
O=C(NCC1(N2CCCCC2)CCCCC1)c1cncc(Br)c1 | inactive: -0.134%
CN1CCC(Nc2cccc(F)c2)CC1 | inactive: -1.12%
COc1cc(OC)c(C(=O)NCC2(N(C)C)CCCCC2)cc1OC | inactive: -8.07%
O=C(NCC1(N2CCOCC2)CCCCC1)c1cc(F)c(F)cc1Cl | inactive: -3.65%
COc1ccc(CN(CCCl)CCCl)cc1Cl | inactive: -4.1%
CN(C)c1cccc(C(=O)NCC2(N3CCCCC3)CCCCC2)c1 | inactive: 3.71%
CC(C)c1ccc(NC2CCN(C(=O)OC(C)(C)C)CC2)cc1 | inactive: 18.5%
CN1CCN(CCOC(=O)C(O)(c2ccccc2)c2ccccc2)CC1 | inactive: -4.45%
CC(C)c1ccc(C(=O)NCC2(N3CCOCC3)CCCCC2)cc1 | inactive: 25.5%
COc1ccc(NC2CCN(C(=O)OC(C)(C)C)CC2)cc1 | inactive: 18.2%
COc1cc(C(=O)NCC2(N3CCCCC3)CCCCC2)ccc1OC(F)F | inactive: -5.05%
O=C(NCC1(N2CCOCC2)CCCCC1)c1cc(=O)[nH]c2ccccc12 | inactive: -11.1%
O=C(NCC1(N2CCCCC2)CCCCC1)c1cccc(C(F)(F)F)c1 | inactive: 4.91%
CSc1ccc(C(=O)NCC2(N3CCOCC3)CCCCC2)cc1 | inactive: 10.1%
O=C(NCC1(N2CCCCC2)CCCCC1)c1cccc([N+](=O)[O-])c1 | inactive: 4.1%
CCN1CCC(Nc2ccc(Cl)cc2)CC1 | inactive: 5.7%
N#CC1(Nc2ccccc2)CCN(CCc2ccccc2)CC1 | inactive: 10.6%
O=C(NCC1(N2CCCCC2)CCCCC1)c1ccc(OC(F)F)cc1 | inactive: 14.6%

SMILES | inhibition
CCOC(=O)N1CCC(Nc2cccc(C)c2)CC1 | inactive: 15.7%
Cc1ccc(OCC(C)C)c(CN(CCCl)CCCl)c1 | inactive: 22.2%
O=C(NCC1(N2CCCCC2)CCCCC1)c1ccc(F)cc1 | inactive: 11.6%
CCCCOc1ccc(C(=O)NCC2(N3CCOCC3)CCCCC2)cc1 | inactive: 16.6%
COc1ccc(NC2CCN(CCc3ccccc3)CC2)c(OC)c1 | inactive: -0.409%
CCOC(=O)N1CCC(Nc2ccc(F)cc2)CC1 | inactive: 17%
CCOc1ccc(C)cc1CN(CCCl)CCCl | inactive: 1.6%
CCOC(=O)N1CCC(Nc2ccc(OC)cc2)CC1 | inactive: 6.84%
O=C(OC1CN2CCC1CC2)C1c2ccccc2Oc2ccccc21 (configuration not stated) | inactive: -8.43%
N#CC1(Nc2ccccc2)CCN(Cc2ccccc2)CC1 | inactive: 10.9%
O=C(NCC1(N2CCCCC2)CCCCC1)c1ccc(Cl)s1 | inactive: 1.72%
COc1ccc(Cl)cc1C(=O)NCC1(N2CCOCC2)CCCCC1 | inactive: 25.2%
O=C(NCC1(N2CCOCC2)CCCCC1)c1cc2ccccc2o1 | inactive: 19.1%
O=C(NCC1(N2CCCCC2)CCCCC1)c1ccc(Cl)nc1 | inactive: 4.91%
Cc1cc(C)cc(N(C(=O)c2ccccc2)C2CCN(C(=O)OC(C)(C)C)CC2)c1 | inactive: 18.1%
CSc1ccccc1C(=O)NCC1(N2CCCCC2)CCCCC1 | inactive: 10.4%
O=C(NCC1(N2CCCCC2)CCCCC1)c1ccc(=O)[nH]c1 | inactive: 0.469%
O=C(NCC1(N2CCCCC2)CCCCC1)c1cccs1 | inactive: 20.7%
COc1ccc(C(=O)NCC2(N3CCCCC3)CCCCC2)cc1 | inactive: 12.4%
CC(C)(C)OC(=O)N1CCC(N(C(=O)c2ccccc2)c2ccc(F)cc2)CC1 | inactive: 18.3%
COc1ccc(C(=O)NCC2(N3CCCCC3)CCCCC2)c(OC)c1OC | inactive: -3.52%
